pIC50: −log10 of the molar value.
Target: isolated polymerase domain (I1780-V2590) of DNA polymerase theta (Polθ) (Homo sapiens (Human), UniProt O75417)

Sequences of proteins named here, by UniProt entry; tags and fusion partners are left off. Residues count along the entry.
UniProt O75417, 1780-2590: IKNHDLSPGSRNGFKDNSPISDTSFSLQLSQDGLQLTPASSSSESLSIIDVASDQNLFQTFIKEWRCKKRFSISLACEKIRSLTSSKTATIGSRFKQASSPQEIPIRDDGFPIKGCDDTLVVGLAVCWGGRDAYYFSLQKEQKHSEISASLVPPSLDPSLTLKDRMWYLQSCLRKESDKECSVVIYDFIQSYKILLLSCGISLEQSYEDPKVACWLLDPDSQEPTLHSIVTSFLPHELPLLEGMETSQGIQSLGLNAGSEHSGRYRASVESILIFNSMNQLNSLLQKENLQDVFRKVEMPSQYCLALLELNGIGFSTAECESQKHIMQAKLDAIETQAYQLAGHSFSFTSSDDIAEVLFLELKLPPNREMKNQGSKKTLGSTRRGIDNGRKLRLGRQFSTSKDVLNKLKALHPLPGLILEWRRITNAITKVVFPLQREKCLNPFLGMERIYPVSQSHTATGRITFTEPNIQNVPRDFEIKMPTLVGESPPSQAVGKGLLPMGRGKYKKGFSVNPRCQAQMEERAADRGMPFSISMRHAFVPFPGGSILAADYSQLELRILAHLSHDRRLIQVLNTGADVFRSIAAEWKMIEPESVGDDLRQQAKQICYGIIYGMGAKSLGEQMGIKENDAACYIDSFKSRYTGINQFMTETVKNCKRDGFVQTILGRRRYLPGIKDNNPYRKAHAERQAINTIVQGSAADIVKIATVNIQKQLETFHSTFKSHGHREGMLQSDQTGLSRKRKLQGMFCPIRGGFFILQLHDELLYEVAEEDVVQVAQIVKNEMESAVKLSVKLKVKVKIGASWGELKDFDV

| pIC50 | SMILES |
| --- | --- |
| 8.60 | CC(=O)N1CCN(CCOc2ccc(-c3nc4c(OC(C)C)ncnc4n3Cc3ccccc3)c(C)c2)CC1 [Example B4, 1-(4-(2-(4-(9-benzyl-6-isopropoxy-9H-purin-8-yl)-3-methyl-phenoxy)ethyl)piperazin-1-yl)ethan-1-one] |
| 8.50 | Cc1cc(N2CC(N)C2)ncc1-c1nc2c(OC3(C)CC3)ncnc2n1Cc1ccccc1 [Example 19, 1-(5-(9-Benzyl-6-(1-methylcyclopropoxy)-9H-purin-8-yl)-4-methylpyridin-2-yl)azetidin-3-amine] |
| 8.60 | Cc1cc(N2CCNCC2)ncc1-c1nc2c(OC3(C)CC3)ncnc2n1Cc1ccccc1 [Example C5, 9-benzyl-8-(4-methyl-6-(piperazin-1-yl)pyridin-3-yl)-6-(1-methylcyclopropoxy)-9H-purine] |
| 8.70 | CC1(Oc2ncnc3c2nc(-c2ccc(OCCN4CCCNCC4=O)cc2Cl)n3Cc2ccccc2)CC1 [Example R12, 1-(2-(4-(9-benzyl-6-(1-methylcyclopropoxy)-9H-purin-8-yl)-3-chlorophenoxy)ethyl)-1,4-diazepan-2-one] |
| 8.60 | CC1(Oc2ncnc3c2nc(-c2ccc(OCC4(F)CNC4)cc2Cl)n3Cc2ccccc2)CC1 [Example D19, 9-benzyl-8-(2-chloro-4-((3-fluoroazetidin-3-yl)methoxy)phenyl)-6-(1-methylcyclopropoxy)-9H-purine] |
| 8.70 | CC1(Oc2ncnc3c2nc(-c2cccc(OCCN4CCNCC4)c2Cl)n3Cc2ccccc2)CC1 [Example D10, 9-benzyl-8-(2-chloro-3-(2-(piperazin-1-yl)ethoxy)phenyl)-6-(1-methylcyclopropoxy)-9H-purine] |
| 8.20 | Cc1ccnc(Cn2c(-c3ccc(OCCN(C)C)cc3Cl)nc3c(OC4(C)CC4)ncnc32)c1 [Example 25, 2-(3-Chloro-4-(6-(1-methylcyclopropoxy)-9-((4-methylpyridin-2-yl)methyl)-9H-purin-8-yl)phenoxy)-N,N-dimethylethan-1-amine] |
| 8.20 | CC(CCOc1ccc(-c2nc3c(OC4(C)CC4)ncnc3n2Cc2ccccc2C2CC2)c(Cl)c1)C(=O)O (single isomer, unassigned) [Example T600, 4-(3-chloro-4-(9-(2-cyclopropylbenzyl)-6-(1-methylcyclopropoxy)-9H-purin-8-yl)phenoxy)-2-methylbutanoic acid] |
| 8.60 | Cc1ccnc(Cn2c(-c3ccc(OCCN4CCNCC4)cc3Cl)nc3c(OC4(C)CC4)ncnc32)c1 [Example L2, 8-(2-chloro-4-(2-(piperazin-1-yl)ethoxy)phenyl)-6-(1-methylcyclopropoxy)-9-((4-methylpyridin-2-yl)methyl)-9H-purine] |
| 8.50 | CC1(Oc2ncnc3c2nc(-c2ccc(O[C@H]4C[C@H](C(=O)O)C4)cc2Cl)n3Cc2cccc(Cl)c2)CC1 [Example T253, (1r,3r)-3-(3-chloro-4-(9-(3-chlorobenzyl)-6-(1-methylcyclopropoxy)-9H-purin-8-yl)phenoxy)cyclobutane-1-carboxylic acid] |
| 8.70 | CN1CCN(CCOc2ccc(-c3nc4c(OC5(C)CC5)ncnc4n3Cc3ccccc3)c(Br)c2)CC1 [Example H6, 9-benzyl-8-(2-bromo-4-(2-(4-methylpiperazin-1-yl)ethoxy)phenyl)-6-(1-methylcyclopropoxy)-9H-purine] |
| 8.20 | Cc1ccnc(Cn2c(-c3ccc(OCCO)cc3Cl)nc3c(OC4(C)CC4)ncnc32)c1 [Example 33, 2-(3-Chloro-4-(6-(1-methylcyclopropoxy)-9-((4-methylpyridin-2-yl)methyl)-9H-purin-8-yl)phenoxy)ethan-1-ol] |
| 8.30 | CC1(Oc2ncnc3c2nc(-c2ccc(O[C@H]4C[C@@H](C(=O)O)C4)cc2Cl)n3Cc2cccc(Cl)c2)CC1 [Example T254, (1s,3s)-3-(3-chloro-4-(9-(3-chlorobenzyl)-6-(1-methylcyclopropoxy)-9H-purin-8-yl)phenoxy)cyclobutane-1-carboxylic acid] |
| 8.20 | CC1(Oc2ncnc3c2nc(-c2ccc(O[C@H]4CC[C@@H](C(=O)O)CC4)cc2Cl)n3Cc2cccc(Cl)c2)CC1 [Example T541, (1s,4s)-4-(3-chloro-4-(9-(3-chlorobenzyl)-6-(1-methylcyclopropoxy)-9H-purin-8-yl)phenoxy)cyclohexane-1-carboxylic acid] |
| 8.00 | COc1ncccc1-c1nc2c(OC3(C)CC3)ncnc2n1Cc1ccccc1 [Example N9, 9-benzyl-8-(2-methoxypyridin-3-yl)-6-(1-methylcyclopropoxy)-9H-purine] |
| 8.60 | CC1(Oc2ncnc3c2nc(-c2ccc(OCCN4CC5(CCN5)C4)cc2Cl)n3Cc2ccccc2)CC1 [Example H18, 8-(4-(2-(1,6-diazaspiro[3.3]heptan-6-yl)ethoxy)-2-chlorophenyl)-9-benzyl-6-(1-methylcyclopropoxy)-9H-purine] |
| 7.70 | CN1CCN(CCOc2ccc(-c3nc4c(OC5(C)CC5)ncnc4n3Cc3cccnc3)c(Cl)c2)CC1 [Example H7, 8-(2-chloro-4-(2-(4-methylpiperazin-1-yl)ethoxy)phenyl)-6-(1-methylcyclopropoxy)-9-(pyridin-3-ylmethyl)-9H-purine] |
| 8.40 | CN(C)C(=O)COc1ccc(-c2nc3c(OC4(C)CC4)ncnc3n2Cc2ccccc2)c(Cl)c1 [Example D20, 2-(4-(9-benzyl-6-(1-methylcyclopropoxy)-9H-purin-8-yl)-3-chlorophenoxy)-N,N-dimethylacetamide] |
| 7.70 | CN(C)C(=O)c1ccc(-c2nc3c(OC4(C)CC4)ncnc3n2Cc2ccccc2)c(Cl)c1 [Example N1, 4-(9-benzyl-6-(1-methylcyclopropoxy)-9H-purin-8-yl)-3-chloro-N,N-dimethylbenzamide] |
| 8.50 | COc1ccc(F)cc1Cn1c(-c2cccc(OCC(C)CC(=O)O)c2Cl)nc2c(OC3(C)CC3)ncnc21 (single isomer, unassigned) [Example U80, 4-(2-chloro-3-(9-(5-fluoro-2-methoxybenzyl)-6-(1-methylcyclopropoxy)-9H-purin-8-yl)phenoxy)-3-methylbutanoic acid] |
| 8.10 | COc1ccc(Cl)cc1Cn1c(-c2cccc(OCCC(=O)O)c2Cl)nc2c(OC3(C)CC3)ncnc21 [Example 49, 3-(2-Chloro-3-(9-(5-chloro-2-methoxybenzyl)-6-(1-methylcyclopropoxy)-9H-purin-8-yl)phenoxy)propanoic acid] |
| 8.50 | CC1(Oc2ncnc3c2nc(-c2cccc(O[C@H]4CC[C@H](C(=O)O)CC4)c2Cl)n3Cc2cccc(Cl)c2)CC1 [Example T542, (1r,4r)-4-(2-chloro-3-(9-(3-chlorobenzyl)-6-(1-methylcyclopropoxy)-9H-purin-8-yl)phenoxy)cyclohexane-1-carboxylic acid] |
| 8.40 | Cc1nc(Cn2c(-c3ccc(OCCN4CCN(C)CC4)cc3Cl)nc3c(OC4(C)CC4)ncnc32)cs1 [Example 7, 4-((8-(2-Chloro-4-(2-(4-methylpiperazin-1-yl)ethoxy)phenyl)-6-(1-methylcyclopropoxy)-9H-purin-9-yl)methyl)-2-methylthiazole] |

| SMILES | pIC50 |
| --- | --- |
| Cc1cc(OCCN2CCNCC2)ncc1-c1nc2c(OC3(C)CCC3)ncnc2n1Cc1ccccc1 [Example 24, 9-Benzyl-8-(4-methyl-6-(2-(piperazin-1-yl)ethoxy)pyridin-3-yl)-6-(1-methylcyclobutoxy)-9H-purine] | 8.30 |
